{"source": "paper PMC10444817", "about": "“New proapoptotic chemotherapeutic agents based on the quinolone-3-carboxamide scaffold acting by VEGFR-2 inhibition” (Scientific Reports, 2023)", "origin": "cited, not measured here", "system": "VEGFR-2 gene", "details": "cited from earlier work"}
{"compound": "CNC(=O)c1cc(Oc2ccc(NC(=O)Nc3ccc(Cl)c(C(F)(F)F)c3)cc2)ccn1", "note": "[Sorafenib]", "values": [{"measurement": "Effect on VEGFR-2 expression in HepG2 cells", "value": "upregulation of VEGFR-2"}]}
